The entries are a selection whose mix differs from that of the whole data set. The source made the active and inactive calls.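 How the source made its calls: active means inhibition of at least 50% at 8 µM in the primary screen; inactive means the rest.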
molecular target: Protein Mdm4 (Homo sapiens) + E3 ubiquitin-protein ligase Mdm2 (Homo sapiens) (UniProt O15151+Q00987); assay: disruptors of Mdm2/MdmX RING complex – cell-based, luminescence, split luciferase, SaOS-2, uHTS, primary screen (AID 485346); details: SaOS-2 split-luciferase Mdm2/MdmX complementation, at 8 µM, stronger effect = higher value

Protein sequences, listed by entry. Tags and fused reporters are not part of them.
UniProt O15151, whole entry, looked up: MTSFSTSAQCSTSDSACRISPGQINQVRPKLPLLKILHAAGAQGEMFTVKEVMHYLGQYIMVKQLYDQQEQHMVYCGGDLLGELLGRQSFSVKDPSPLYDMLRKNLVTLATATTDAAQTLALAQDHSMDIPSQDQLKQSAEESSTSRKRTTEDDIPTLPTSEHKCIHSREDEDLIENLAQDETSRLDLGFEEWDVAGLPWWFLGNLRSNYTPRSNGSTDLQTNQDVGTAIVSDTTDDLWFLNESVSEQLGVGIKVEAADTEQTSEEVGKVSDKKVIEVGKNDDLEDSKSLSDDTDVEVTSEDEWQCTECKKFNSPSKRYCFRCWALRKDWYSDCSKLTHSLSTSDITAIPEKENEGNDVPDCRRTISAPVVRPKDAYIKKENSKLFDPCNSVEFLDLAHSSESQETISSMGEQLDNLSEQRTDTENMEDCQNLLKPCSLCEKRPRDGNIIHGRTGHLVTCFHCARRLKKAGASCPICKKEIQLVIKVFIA
UniProt Q00987, whole entry, looked up: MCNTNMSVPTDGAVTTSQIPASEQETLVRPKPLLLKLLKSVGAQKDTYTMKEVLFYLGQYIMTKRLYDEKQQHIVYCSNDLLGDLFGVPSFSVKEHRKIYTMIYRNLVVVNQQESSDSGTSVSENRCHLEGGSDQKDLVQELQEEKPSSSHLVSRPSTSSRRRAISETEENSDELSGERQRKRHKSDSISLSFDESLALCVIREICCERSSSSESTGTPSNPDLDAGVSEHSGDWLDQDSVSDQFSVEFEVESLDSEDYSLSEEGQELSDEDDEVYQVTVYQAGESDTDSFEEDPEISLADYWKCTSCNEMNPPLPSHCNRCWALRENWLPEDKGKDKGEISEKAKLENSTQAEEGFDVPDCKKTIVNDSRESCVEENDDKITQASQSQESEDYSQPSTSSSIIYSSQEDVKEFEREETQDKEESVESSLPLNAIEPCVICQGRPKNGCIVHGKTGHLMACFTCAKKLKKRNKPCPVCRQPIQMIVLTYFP

Compound | inhibition
CP(=O)(Nc1ccccc1)Oc1ccc(F)cc1 (stereo unspecified) | inactive: 13.6%
CCN(CC)CCCOC(=O)C(O)(c1ccccc1)C1CCCCC1 (stereo unspecified) | inactive: 12.6%
COc1ccc(OP(C)(=O)Nc2ccc(SC(F)(F)F)cc2)cc1 (stereo unspecified) | inactive: 1.82%
CCOC(=O)c1ccc(NP(C)(=O)Oc2ccc(F)cc2)cc1 (stereo unspecified) | inactive: 8.7%
CP(=O)(OCCOc1ccccc1)OCCOc1ccccc1 | inactive: 18%
CP(=O)(Nc1ccc(Cl)cc1Cl)Oc1ccccc1 (stereo unspecified) | inactive: -2.84%
Cc1nc2ccc3ccccc3c2o1.O=[N+]([O-])c1cc([N+](=O)[O-])c(O)c([N+](=O)[O-])c1 | inactive: 12%
COc1ccc(OP(C)(=O)Nc2ccccc2Br)cc1 (stereo unspecified) | inactive: 20%
COc1ccccc1OP(C)(=O)Nc1ccc(C)c(C)c1 (stereo unspecified) | inactive: 24.3%
Cc1cc(C)cc(OP(C)(=O)Nc2cccc(C(F)(F)F)c2)c1 (stereo unspecified) | inactive: -6.13%
CCc1ccc(OP(C)(=O)O)cc1 | inactive: 1.88%
CP(=O)(Nc1ccccn1)Oc1ccccc1 (stereo unspecified) | inactive: 10.6%
COc1ccccc1OP(C)(=O)Nc1ccc(C)cc1C (stereo unspecified) | inactive: 4.53%
O=[N+]([O-])c1cc([N+](=O)[O-])c(Nc2ccccn2)c([N+](=O)[O-])c1 | inactive: 34.7%
Cc1c(NP(C)(=O)Oc2ccc(C(C)C)cc2)c(=O)n(-c2ccccc2)n1C (stereo unspecified) | inactive: -0.131%
CN(C)CCOC(=O)C(O)(c1ccccc1)C1CCCC1 (stereo unspecified) | inactive: 7%

Compound | inhibition
COc1ccc(OP(C)(=O)Nc2ccccn2)cc1 (stereo unspecified) | inactive: 7.97%
COc1ccccc1OP(C)(=O)Nc1ccc(Br)cc1 (stereo unspecified) | inactive: 5.94%
CN(C)C(=O)c1c([N+](=O)[O-])cc([N+](=O)[O-])cc1[N+](=O)[O-] | inactive: 17.5%
CP(=O)(Nc1ccc(Cl)cc1)Oc1ccc(F)cc1 (stereo unspecified) | inactive: -0.66%
CC(C)(C)c1ccc(OP(C)(=O)O)cc1 | inactive: -26.3%
COc1ccccc1OP(C)(=O)Nc1ccccc1Br (stereo unspecified) | inactive: 19.5%
CP(=O)(Oc1ccccc1)N1CCOC1=O (stereo unspecified) | inactive: 28.8%
CCc1ccc(OP(C)(=O)Nc2cccnc2)cc1 (stereo unspecified) | inactive: -8.53%
COc1ccccc1OP(C)(=O)Nc1c(C)n(C)n(-c2ccccc2)c1=O (stereo unspecified) | inactive: -10.4%
O=C(OCCCN1CCCC1)C(O)(c1ccccc1)C1CCCCC1 (stereo unspecified) | inactive: -5.35%
CCN(CC)CC(O)COC(=O)C(O)(c1ccccc1)C1CCCCC1 (stereo unspecified) | inactive: -10.6%
COc1ccc(OP(C)(=O)Nc2ccc(Br)cc2)cc1 (stereo unspecified) | inactive: -2.9%
CP(=O)(OC12CC3CC(CC(C3)C1)C2)OC12CC3CC(CC(C3)C1)C2 | inactive: 18.9%
CCOC(=O)c1ccc(NP(C)(=O)Oc2ccc(Cl)cc2)cc1 (stereo unspecified) | inactive: 6.8%
Nc1ccc2c(ccc3cccnc32)n1.O=[N+]([O-])c1cc([N+](=O)[O-])c(O)c([N+](=O)[O-])c1 | inactive: 27.9%
